# Results as given in US20130261178A1, “PHENOXYPROPANOL DERIVATIVES AND THEIR USE IN TREATING CARDIAC AND CARDIOVASCULAR DISEASES” (priority 2010, published 2013).
# Chains of the proteins cited; added tags and fusions are not shown.
# UniProt P07550, whole entry: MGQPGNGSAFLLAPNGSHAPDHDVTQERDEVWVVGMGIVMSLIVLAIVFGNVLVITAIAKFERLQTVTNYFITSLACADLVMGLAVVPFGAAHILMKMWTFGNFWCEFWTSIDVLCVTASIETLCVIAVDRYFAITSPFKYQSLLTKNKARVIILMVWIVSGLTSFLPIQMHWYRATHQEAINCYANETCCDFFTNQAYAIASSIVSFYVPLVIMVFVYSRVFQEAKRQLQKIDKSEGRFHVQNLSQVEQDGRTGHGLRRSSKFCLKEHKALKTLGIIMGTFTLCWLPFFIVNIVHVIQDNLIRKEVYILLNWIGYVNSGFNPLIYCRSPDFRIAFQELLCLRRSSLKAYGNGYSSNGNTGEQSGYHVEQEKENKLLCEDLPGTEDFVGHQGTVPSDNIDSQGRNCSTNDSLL
# UniProt P08588, whole entry: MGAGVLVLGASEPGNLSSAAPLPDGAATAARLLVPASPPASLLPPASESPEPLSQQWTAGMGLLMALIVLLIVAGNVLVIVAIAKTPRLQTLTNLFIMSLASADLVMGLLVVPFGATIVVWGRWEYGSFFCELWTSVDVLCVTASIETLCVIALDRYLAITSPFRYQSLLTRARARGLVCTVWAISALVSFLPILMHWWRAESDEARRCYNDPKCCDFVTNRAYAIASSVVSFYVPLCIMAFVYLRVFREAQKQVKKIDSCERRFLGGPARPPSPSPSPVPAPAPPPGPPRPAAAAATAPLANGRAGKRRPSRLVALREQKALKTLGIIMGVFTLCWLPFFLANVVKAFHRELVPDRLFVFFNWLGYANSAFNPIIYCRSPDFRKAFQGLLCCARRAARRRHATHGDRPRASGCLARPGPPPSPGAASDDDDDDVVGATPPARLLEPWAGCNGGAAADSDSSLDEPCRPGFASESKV
# Key:
# human beta2-adrenoceptor = molecular target: T1, human beta2-adrenoceptor (Homo sapiens, UniProt P07550); experiment: 3H-CGP12177 whole-cell binding, CHO cells expressing human beta2-adrenoceptor; details: 3H-CGP 12177 whole cell binding, mean ± s.e.mean
# T1 construct: expressed in transfected cells; host or cells: CHO cells
# Experimental: Selectivity of ligands for the three beta-adrenoceptors was assessed by whole-cell binding studies using ^3H-CGP12177 in CHO cells expressing the human beta1, beta2 or beta3-adrenoceptors respectively essentially as described by Baker (2005; Br. J Pharmacol: 144, 317-22). Values shown are KD values determined as described by Baker (2005).
# The selectivity of a ligand is given by the ratio of beta-1 to beta-2 KD. Accordingly a difference of one in the logarithmic values thereof represents a 10-fold selectivity, a difference of 2 represents 100-fold selectivity and a difference of 3 represents 1000-fold selectivity etc.
# beta1-adrenoceptor = beta1-adrenoceptor (Homo sapiens, UniProt P08588); experiment: 3H-CGP12177 whole-cell binding, CHO cells expressing human beta1-adrenoceptor; design: expressed in transfected cells; host or cells: CHO cells; details: 3H-CGP 12177 whole cell binding, mean ± s.e.mean
Compound,Beta 2 Log KD (human beta2-adrenoceptor),Beta 1 Log KD (beta1-adrenoceptor)
O=C(NCCNCC(O)COc1ccc(OCCOC2CCCC2)cc1)Nc1cccc(Br)c1 (centres unmarked) [47o],−5.99 ± 0.04,–
O=C(NCCNCC(O)COc1ccc(OCCOC2CCCC2)cc1)Nc1ccccc1Cl (centres unmarked) [47k],−5.54 ± 0.03,–
Cc1ccc(NC(=O)NCCNCC(O)COc2ccc(OCCOC3CCCC3)cc2)cc1 (centres unmarked) [47d],−5.80 ± 0.03,–
N#Cc1cc(OCCOCC2CC2)ccc1OCC(O)CNCCNC(=O)Nc1ccc(O)cc1 (centres unmarked) [LK204-545],–,−8.09 ± 0.04
"O=C(NCCNCC(O)COc1ccc(OCCOC2CCCC2)cc1)Nc1ccccc1O (centres unmarked) [47t, 1-(2-(3-(4-(2-(Cyclopentyloxy)ethoxy)phenoxy)-2-hydroxypropylamino)ethyl)-3-(2-hydroxyphenyl)urea]",−5.96 ± 0.05,–
